The entries are a selection whose mix differs from that of the whole data set. Activity calls are given as the source filed them.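 The calls were made as follows: active = fitted curve reaching 40% activation at or below the top valid tested dose; inactive = the rest, or activity counter to the expected direction.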

These results are taken from PubChem BioAssay AID493180 (Broad Institute, 2011).

A short description of this experiment: HRE-driven luciferase induction, U2OS – cell-based, luminescence, dry powder, set 3, dose response (AID 493180). The conditions noted are these: U2OS HRE-luciferase reporter, HIF pathway activation, at 38 µM (top of the series). In short, it runs like this:
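System: U2OS 3xHRE-luciferase reporter cells / Quantity: 6,000 U2OS reporter cells per well / Doses: 8-point series in 3-fold steps, 7.5 mM top stock / Measured by: luciferase luminescence measured with Steady-Glo reagent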
Background: Reporter assays use an easily measured gene product as a stand-in for the process of interest.

As for `O=c1[nH]c2ccccc2n1C1CCN(Cc2ccc(O)c3ncccc23)CC1`, the activation is inactive: 2.17%.
